Laboratory results as given in PubChem BioAssay AID623 (Vanderbilt High Throughput Screening Facility, 2007).
Only a part is listed here, and it is no random draw. Active and inactive are the calls of the source.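 Rule for the calls: active = NADPH fluorescence slope more negative than the mean of all samples by about 3 SD, 99.7% confidence; inactive = the rest.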

Chains of the proteins cited; added tags and fusions are not shown.
UniProt P62483, whole entry: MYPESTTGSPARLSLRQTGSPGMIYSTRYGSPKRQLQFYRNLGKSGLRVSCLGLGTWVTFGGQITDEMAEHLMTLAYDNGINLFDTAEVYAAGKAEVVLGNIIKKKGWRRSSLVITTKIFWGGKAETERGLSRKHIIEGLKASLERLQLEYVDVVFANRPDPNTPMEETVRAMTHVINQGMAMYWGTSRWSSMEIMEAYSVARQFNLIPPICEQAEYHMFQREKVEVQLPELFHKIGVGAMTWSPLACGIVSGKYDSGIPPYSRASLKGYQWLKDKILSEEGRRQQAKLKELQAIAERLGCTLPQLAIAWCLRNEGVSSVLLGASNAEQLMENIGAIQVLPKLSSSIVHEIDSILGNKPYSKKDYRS

What follows are compounds tested against Voltage-gated potassium channel subunit beta-2 (Rattus norvegicus) (UniProt P62483) (assay: enhancers of rat Kvbeta2 NADPH turnover – biochemical, NADPH fluorescence, primary screen (AID 623;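 note: fluorescence intensity change per second fitted from 20 to 320 s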)). Settings: Recombinant KvBeta, NADPH fluorescence decrease slope, 10 min; at 10 µM; hits give low values.
With `Cc1ccc(C)c(NP(C)(=O)Oc2ccccc2)c1` (stereo unspecified) the NADPH fluorescence slope was inactive: 3.4e-06.
For `CP(=S)(Nn1cnnc1)Oc1ccccc1` (stereo unspecified), the NADPH fluorescence slope was inactive: -4.1e-06.
In the case of `CCN(CC)CC(O)COC(=O)C(O)(c1ccccc1)C1CCCCC1` (stereo unspecified), the NADPH fluorescence slope is reported as inactive: -9.8e-05.
With `CP(=O)(Nc1ccccn1)Oc1ccccc1` (stereo unspecified) the NADPH fluorescence slope was inactive: -0.000116.
With `CP(=O)(Nc1ccc2c(c1)OCCO2)Oc1ccccc1` (stereo unspecified) the NADPH fluorescence slope was inactive: -2.1e-05.
In the case of `CN(C)CCOC(=O)C(O)(c1ccccc1)C1CCCCC1` (stereo unspecified), the NADPH fluorescence slope is reported as inactive: -0.000222.
